Test results published in PubChem BioAssay AID492947 (National Center for Advancing Translational Sciences (NCATS), 2010).
The entries are a selection whose mix differs from that of the whole data set. The source made the active and inactive calls. Calls follow the shape of the dose curve; as a rule, active = well fitted activation curve with a large enough effect; inconclusive = small, poorly fitted or top-dose-only effect; inactive = flat fitted curve, though single readings scatter.

Amino acid sequences for entries named in this document (tags omitted).
UniProt P07550, whole entry: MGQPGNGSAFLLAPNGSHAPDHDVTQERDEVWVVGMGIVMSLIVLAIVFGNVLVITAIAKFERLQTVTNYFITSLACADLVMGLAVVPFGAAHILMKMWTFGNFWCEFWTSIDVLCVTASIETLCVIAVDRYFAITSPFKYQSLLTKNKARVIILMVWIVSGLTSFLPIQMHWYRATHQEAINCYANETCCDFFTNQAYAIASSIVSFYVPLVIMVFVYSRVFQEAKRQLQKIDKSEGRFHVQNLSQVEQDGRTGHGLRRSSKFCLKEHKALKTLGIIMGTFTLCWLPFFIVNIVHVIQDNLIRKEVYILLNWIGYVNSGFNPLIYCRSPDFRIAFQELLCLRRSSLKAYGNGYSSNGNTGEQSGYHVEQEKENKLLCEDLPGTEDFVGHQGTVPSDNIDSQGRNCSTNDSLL

The molecules below were run against Beta-2 adrenergic receptor (Homo sapiens) (UniProt P07550) (assay: qHTS assay of beta-arrestin-biased ligands of beta2-adrenergic receptor). Conditions: beta-arrestin recruitment to beta2AR, cell-based reporter; at 46.1 µM (top of the series).
Description: NIH Molecular Libraries Probe Production Network [MLPCN]
NIH Chemical Genomics Center [NCGC]
PI: Bryan Roth and Bob Lefkowitz
The concept of biased agonism is an emerging concept of molecular pharmacology which proposes that seven transmembrane receptors (7TMRs) or G protein-coupled receptors (GPCRs), exist in multiple signaling conformations and complexes and that ligands (either agonists or antagonists) can induce signaling biased responses for distinct signal transduction cascades.
Furthermore, accumulating evidence over the last decade has drawn attention to a novel function of beta-arrestins as signal transducers that scaffold various signaling molecules upon activation of 7TMRs. […]
Tango cells were dispensed into white, solid, tissue-culture-treated 1536-well plates at 1500 cells/well in DMEM, containing 1% fetal bovine serum (FBS). […] Plates were then incubated for 15 minutes at room temperature, and subsequently measured on a ViewLux plate reader for luminescent signal using a clear filter with a 10 second exposure and 2x binning. The %Activity was determined from the corrected luminescence values.
Concentration-response curves were fitted to the signals arising from the resulting luminescence. […]
Keywords: biased agonism, beta2-AR, beta-arrestin, GPCR, 7TMR, Tango, luminescence, MLSMR, MLPCN, NIH Roadmap, qHTS, NCGC
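Also: 0% = DMSO controls and full agonism = EC100 isoproterenol or metaproterenol; nearly all actives have a fitted effect of over 65% in size.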

| SMILES | activation |
| --- | --- |
| CCC(=O)N(c1ccccc1)C1(COC)CCN(CCc2cccs2)CC1 | inactive: 10.8% |
| CCC(=O)N(c1ccccc1)C1(COC)CCN(CCn2nnn(CC)c2=O)CC1 | inactive: -0.903% |
